By UniProt entry, the sequences of proteins in these tests, tags left out.
ATP-dependent Clp protease proteolytic subunit (Bacillus subtilis (strain 168)), P80244, UniProt P80244, whole entry, looked up: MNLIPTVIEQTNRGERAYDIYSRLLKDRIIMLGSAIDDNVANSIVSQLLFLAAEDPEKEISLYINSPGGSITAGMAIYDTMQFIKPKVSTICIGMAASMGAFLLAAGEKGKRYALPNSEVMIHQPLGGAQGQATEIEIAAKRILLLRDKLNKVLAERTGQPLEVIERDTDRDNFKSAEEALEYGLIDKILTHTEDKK

# Hits are enriched below; roughly 2.5% of the tested compounds scored in any of these assays.
# rTrxR1 inhibitor = blocks rat thioredoxin reductase 1; O89049; recombinant rTrxR1, NADPH fluorescence consumption, selenite substrate; Potency, µM (titrated, usually from 114 µM), for the others: top-dose activity change, negative = inhibition, most hits filed as inhibitors; actives 1% (n = 390,000); also: potency is read from the fitted curve at half-maximal effect; % is scaled to controls: 0 for no effect and ±100 for the full control effect; nearly all actives have a fitted effect of over 65% in size
#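 Rat TrxR1 (90 nM in the dispensed reagent) was pre-reduced with 400 uM NADPH for 5 min at room temperature, then incubated with compound for 15 min. After 400 uM selenite was added, NADPH fluorescence (Ex 340/Em 450 nm) was followed for 8 min.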
# Apoferritin bind = binds horse apoferritin like a general anesthetic | P02791 | apoferritin/1-aminoanthracene competitive binding, fluorescence | Potency, µM (doses to about 77.5 µM), for the others: top-dose activity change, negative = displacement, usual class: inhibitors | actives 0.074% (n = 350,000) | AID 485281; also: potency is read from the fitted curve at half-maximal effect; % is scaled to controls: 0 for no effect and ±100 for the full control effect; nearly all actives have a fitted effect of over 20% in size
#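 10 uM apoferritin + 50% sat. 1-AMA, PBS; cpd 10 min RT; Ex380/Em535 endpoint; normalized to free probe vs complex; 4-param Hill fit; propofol titration as pos. ctrl.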
# TrxR1 substrate = rat thioredoxin reductase 1 substrate activity; O89049; actives 0.01% (n = 390,000); Potency, µM (top dose mostly 114 µM), for the others: top-dose activity change, negative = substrate turnover; purified TrxR1 substrate turnover, NADPH consumption readout; also: potency is read from the fitted curve at half-maximal effect; % is scaled to controls: 0 for no effect and ±100 for the full control effect; nearly all actives have a fitted effect of over 50% in size
#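 Rat TrxR1, dispensed at 90 nM, was prereduced with 400 uM NADPH (final) for 5 min at ~22 deg C, then incubated with compound 15 min before 400 uM selenite. A first-read NADPH fluorescence drop versus no-compound background flagged substrates.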
# miR-21 reporter = miR-21 reporter, rising signal. HeLa miR-21 FLuc reporter, luciferase, 48 h. Potency, µM (highest dose often 38.3 µM), for the others: at the highest dose reporter change, positive = more light. 340,000 tested, under 10 active. AID 2288; active = well fitted rising curve with a large enough effect; inconclusive = small, poorly fitted or top-dose-only effect; inactive = no such curve, though single readings can be large or run the other way;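 further: % of control where 0% means no effect; miR-21 action dims this reporter so a rising signal means less miR-21 action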
#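 HeLa cells endogenously expressing miR-21, stably carrying CMV-driven firefly luciferase with a downstream miR-21 binding site, 2000 cells/well. Titrations up to approximately 40 uM, 48 hours; luciferase luminescence read.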
# ClpP mod = qHTS Assay for Activators of ClpP; ATP-dependent Clp protease proteolytic subunit (Bacillus subtilis (strain 168)), P80244; purified B. subtilis ClpP, FRET peptide cleavage, 20 min; Potency, µM (series often up to 57.5 µM), without a hit: at the top dose activity change, negative = active; actives 1.9% (n = 340,000); active = well fitted falling curve with a large enough effect; inconclusive = small, poorly fitted or top-dose-only effect; inactive = no such curve, though single readings can be large or run the other way; also: potency is read from the fitted curve at half-maximal effect; the source files actives as falling curves though it sought activators and does not explain the sign; nearly all actives have a fitted effect of over 65% in size
#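 Purified B. subtilis ClpP, 10 microg/mL final in Tris/HCl pH8 with KCl, BSA, glycerol and Tween-20, cleaved an Abz/nitrotyrosine-quenched decapeptide. Fluorescence (ex 320, em 430) was read at 0 and 20 min at room temperature. Delta was normalized to 5.8 microM ADEP and DMSO/no-enzyme controls.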
# An asterisk follows results filed as active; ? = inconclusive; · = no result given; [ ] = dose if it differs, or a comment. Unless noted, calls follow the shape of the dose curve; as a rule, active = well fitted curve in the direction sought with a large enough effect; inconclusive = small, poorly fitted or top-dose-only effect, or another doubt; inactive = no such curve, though single readings can be large; an effect the other way counts as inactive or inconclusive.
nr	Compound	rTrxR1 inhibitor	Apoferritin bind	TrxR1 substrate	miR-21 reporter	ClpP mod
1	COc1ccccc1N(O)C1CC(=O)N(c2ccc(F)cc2)C1=O (stereo not drawn)	0.89µM*	4%	0%	-6%	2%
2	COc1ccccc1N1C(=O)CC(N(O)c2ccccc2)C1=O (stereo not drawn)	-56%	-3%	4%[57.1 µM]	-4%	·
3	CCCOc1ccc(N2C(=O)CC(N(O)c3ccccc3)C2=O)cc1 (stereo not drawn)	7.9µM*	-13%	-3%	-33%	0%
4	CCCOc1ccc(N2C(=O)CC(SCCN)C2=O)cc1 (stereo not drawn)	79µM*	8%	0%	-35%	0%
5	CC(C)(C)c1ccc(C(=O)N2CC(=O)Nc3ccc(F)cc3C2c2ccc(F)cc2)cc1 (stereo not drawn)	8%	-6%	-11%	?	-4%
6	COc1ccc(C(=O)CCc2ccccc2)c(O)c1	22%	·	0%	·	·
7	O=C(CCc1ccccc1)c1c(O)cc(O)cc1O	20µM*	?	2%	-15%	-2%
8	O=C(NC1CC1)c1ccc2nc(-c3ccco3)c(-c3ccco3)nc2c1	2.5µM*	·	-2%	·	-21%
9	CNC(=O)c1ccc2nc(-c3ccco3)c(-c3ccco3)nc2c1	4µM*	·	-5%	·	-16%
10	CC(=O)c1ccc(NC(=O)c2ccc3nc(-c4ccco4)c(-c4ccco4)nc3c2)cc1	2.5µM*	-17%	1%	11%	-14%
11	CCCOc1ccc(-c2cccc(NS(=O)(=O)c3ccc(CC)cc3)c2)nn1	6%[57.1 µM]	-16%	-7%[57.1 µM]	5%	-1%
12	O=c1c2c(nc3cc(-c4cccc(Cl)c4)[nH]n13)CCC2	-5%[57.1 µM]	-5%	11%[57.1 µM]	-58%	28µM*
13	O=c1c2c(nc3cc(-c4cccc(F)c4)[nH]n13)CCC2	12%[57.1 µM]	-7%	36%[57.1 µM]	-58%	·
14	O=c1c2c(nc3cc(-c4ccc(F)cc4)[nH]n13)CCCC2	17%[57.1 µM]	-17%	14%[57.1 µM]	-26%	10µM*
15	Cc1cc(C)c2c(=O)cc(C(=O)Nc3ccc(S(=O)(=O)Nc4nc(C)cc(C)n4)cc3)oc2c1	-4%	?	-3%	-13%	2%
16	CCN1CCN(Cc2c(O)ccc3c(C)c(-c4ccc(OC)cc4)c(=O)oc23)CC1	-10%[57.1 µM]	37%	50%[57.1 µM]	-6%	4%
17	Cc1ccc2cc(C=C(C#N)C#N)c(N3CCCCC3)nc2c1	1µM*	?	-5%	-15%	1%
18	Cc1ccc2cc(/C=C(\C#N)C(N)=O)c(N3CCCCC3)nc2c1	-10%	2%	-8%	-7%	0%
19	COc1ccc(C2N(Cc3ccccc3)CC(=O)N2/N=C(\C)c2ccccc2)cc1 (stereo not drawn)	15%	-2%	0%	-28%	16µM*
20	COc1ccc(/C=N/N2C(=O)CN(C(=O)c3ccccc3)C2c2ccc(OC)cc2)cc1 (stereo not drawn)	26%	-8%	3%	-2%	1%
21	O=c1oc2ccc3ccccc3c2cc1-c1nnc(-c2ccccc2)o1	56%[57.1 µM]	49%	50%[57.1 µM]	-36%	14µM*
22	Cc1cccc(Nc2nc(NCCCN3CCOCC3)nc(N)c2[N+](=O)[O-])c1	-10%	-17%	-10%	-4%	20µM*
23	c1cc2c3c(c1)CCC[N+]3(C1CCCCC1)CCC2	-17%	·	6%	·	?
24	CCOC(=O)CC1(CC(=O)OCC)NC(=O)c2c(C)sc(C(=O)OCC)c2N1	-8%[57.1 µM]	-4%	62%	-5%	35µM*

# Whole records, looked up by structure. Screens in order: rTrxR1 inhibitor	Apoferritin bind	TrxR1 substrate	miR-21 reporter	ClpP mod
# Shown for Cc1cccc(Nc2nc(NCCCN3CCOCC3)nc(N)c2[N+](=O)[O-])c1 → -10%	-17%	-10%	-4%	20µM*
# Shown for CCOC(=O)CC1(CC(=O)OCC)NC(=O)c2c(C)sc(C(=O)OCC)c2N1 → -8%[57.1 µM]	-4%	62%	-5%	35µM*
# Shown for COc1ccc(/C=N/N2C(=O)CN(C(=O)c3ccccc3)C2c2ccc(OC)cc2)cc1 (stereo not drawn) → 26%	-8%	3%	-2%	1%
# Shown for Cc1ccc2cc(/C=C(\C#N)C(N)=O)c(N3CCCCC3)nc2c1 → -10%	2%	-8%	-7%	0%

# Other results follow:
nr	Compound	rTrxR1 inhibitor	Apoferritin bind	TrxR1 substrate	miR-21 reporter	ClpP mod
25	O=C(Nc1ccon1)C1CCN(S(=O)(=O)c2cccs2)CC1	13%[57.1 µM]	1%	5%[57.1 µM]	-2%	25µM*
26	Cc1cc(NC(=O)C2CCN(S(=O)(=O)c3cccs3)CC2)no1	23%[57.1 µM]	-13%	8%[57.1 µM]	-1%	0%
27	CC(=O)Nc1nc2n(n1)C(c1ccc(Cl)cc1)C=C(C)N2 (stereo not drawn)	?	372%	323%	0%	3.2µM*
28	CC1=CC(c2ccc(Cl)cc2)n2nc(NC(=O)c3ccccc3)nc2N1 (stereo not drawn)	8%	?	24%	1%	?

# From PubChem BioAssay
